From ChEMBL document CHEMBL5029165, “Derivatives of montanine-type alkaloids and their implication for the treatment of Alzheimer's disease: Synthesis, biological activity and in silico study” (Bioorg Med Chem Lett, 2021)

Protein sequences, listed by entry. Tags and fused reporters are not part of them.
UniProt P06276, whole entry: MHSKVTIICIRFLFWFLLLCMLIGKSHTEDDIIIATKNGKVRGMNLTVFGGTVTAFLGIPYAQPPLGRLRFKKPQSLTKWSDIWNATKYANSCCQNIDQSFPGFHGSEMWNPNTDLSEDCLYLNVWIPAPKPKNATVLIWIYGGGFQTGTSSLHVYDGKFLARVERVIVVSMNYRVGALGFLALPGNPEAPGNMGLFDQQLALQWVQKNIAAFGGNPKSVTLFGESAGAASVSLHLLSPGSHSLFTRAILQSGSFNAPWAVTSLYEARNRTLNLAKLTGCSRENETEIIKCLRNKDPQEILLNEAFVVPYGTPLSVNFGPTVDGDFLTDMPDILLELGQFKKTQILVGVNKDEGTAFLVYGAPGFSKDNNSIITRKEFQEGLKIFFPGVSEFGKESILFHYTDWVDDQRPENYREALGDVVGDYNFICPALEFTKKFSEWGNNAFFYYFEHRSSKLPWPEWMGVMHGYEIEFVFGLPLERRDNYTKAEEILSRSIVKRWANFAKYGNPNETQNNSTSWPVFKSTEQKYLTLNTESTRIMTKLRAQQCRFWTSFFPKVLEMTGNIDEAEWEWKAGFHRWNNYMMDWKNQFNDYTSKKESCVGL

Molecular target: Cholinesterase (Homo sapiens, UniProt P06276)
Assay: Inhibition of human BuChE at 100 uM using butyrylthiocholine chloride as substrate by Ellman's method

## CNC(=O)Oc1ccc2c(c1)[C@]1(C)CCN(C)[C@@H]1N2C
  inhibition: 99.9%
